Results from ChEMBL document CHEMBL4706658, “Discovery and Biological Evaluation of N-Methyl-pyrrolo[2,3-b]pyridine-5-carboxamide Derivatives as JAK1-Selective Inhibitors” (J Med Chem, 2021).

Chains of the proteins cited; added tags and fusions are not shown. Lines headed by an entry give the natural chain unless they say otherwise; changes in a name come on top.
UniProt P29597: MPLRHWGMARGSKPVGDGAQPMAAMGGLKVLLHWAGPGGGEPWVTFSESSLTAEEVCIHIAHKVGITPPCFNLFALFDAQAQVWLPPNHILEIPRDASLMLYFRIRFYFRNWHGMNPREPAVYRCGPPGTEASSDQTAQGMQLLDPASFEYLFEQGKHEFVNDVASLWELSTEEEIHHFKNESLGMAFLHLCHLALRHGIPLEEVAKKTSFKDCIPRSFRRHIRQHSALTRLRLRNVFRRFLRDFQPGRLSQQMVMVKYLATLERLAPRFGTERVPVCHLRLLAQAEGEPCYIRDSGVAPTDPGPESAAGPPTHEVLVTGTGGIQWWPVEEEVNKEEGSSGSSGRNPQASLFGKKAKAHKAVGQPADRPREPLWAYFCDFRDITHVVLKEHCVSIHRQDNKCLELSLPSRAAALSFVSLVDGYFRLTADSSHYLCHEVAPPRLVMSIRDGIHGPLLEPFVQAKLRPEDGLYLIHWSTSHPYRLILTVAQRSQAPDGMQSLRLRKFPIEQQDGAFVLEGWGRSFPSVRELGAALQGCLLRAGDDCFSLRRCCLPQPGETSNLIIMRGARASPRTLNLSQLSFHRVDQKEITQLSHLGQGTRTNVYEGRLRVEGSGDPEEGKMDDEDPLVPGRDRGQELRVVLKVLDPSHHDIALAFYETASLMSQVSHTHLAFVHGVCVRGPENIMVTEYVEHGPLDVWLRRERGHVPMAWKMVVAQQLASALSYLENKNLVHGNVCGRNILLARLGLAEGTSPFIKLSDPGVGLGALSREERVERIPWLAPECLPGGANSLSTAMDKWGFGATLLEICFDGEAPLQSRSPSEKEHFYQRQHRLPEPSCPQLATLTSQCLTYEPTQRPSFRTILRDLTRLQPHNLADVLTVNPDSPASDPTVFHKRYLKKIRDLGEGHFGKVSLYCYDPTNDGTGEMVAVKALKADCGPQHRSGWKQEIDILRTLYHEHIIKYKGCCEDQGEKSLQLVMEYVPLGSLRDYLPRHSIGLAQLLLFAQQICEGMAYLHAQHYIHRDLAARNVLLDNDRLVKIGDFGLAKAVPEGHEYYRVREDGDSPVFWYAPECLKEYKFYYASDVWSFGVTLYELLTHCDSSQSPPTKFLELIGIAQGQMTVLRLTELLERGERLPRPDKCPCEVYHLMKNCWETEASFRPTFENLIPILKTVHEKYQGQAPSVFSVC
UniProt P23458: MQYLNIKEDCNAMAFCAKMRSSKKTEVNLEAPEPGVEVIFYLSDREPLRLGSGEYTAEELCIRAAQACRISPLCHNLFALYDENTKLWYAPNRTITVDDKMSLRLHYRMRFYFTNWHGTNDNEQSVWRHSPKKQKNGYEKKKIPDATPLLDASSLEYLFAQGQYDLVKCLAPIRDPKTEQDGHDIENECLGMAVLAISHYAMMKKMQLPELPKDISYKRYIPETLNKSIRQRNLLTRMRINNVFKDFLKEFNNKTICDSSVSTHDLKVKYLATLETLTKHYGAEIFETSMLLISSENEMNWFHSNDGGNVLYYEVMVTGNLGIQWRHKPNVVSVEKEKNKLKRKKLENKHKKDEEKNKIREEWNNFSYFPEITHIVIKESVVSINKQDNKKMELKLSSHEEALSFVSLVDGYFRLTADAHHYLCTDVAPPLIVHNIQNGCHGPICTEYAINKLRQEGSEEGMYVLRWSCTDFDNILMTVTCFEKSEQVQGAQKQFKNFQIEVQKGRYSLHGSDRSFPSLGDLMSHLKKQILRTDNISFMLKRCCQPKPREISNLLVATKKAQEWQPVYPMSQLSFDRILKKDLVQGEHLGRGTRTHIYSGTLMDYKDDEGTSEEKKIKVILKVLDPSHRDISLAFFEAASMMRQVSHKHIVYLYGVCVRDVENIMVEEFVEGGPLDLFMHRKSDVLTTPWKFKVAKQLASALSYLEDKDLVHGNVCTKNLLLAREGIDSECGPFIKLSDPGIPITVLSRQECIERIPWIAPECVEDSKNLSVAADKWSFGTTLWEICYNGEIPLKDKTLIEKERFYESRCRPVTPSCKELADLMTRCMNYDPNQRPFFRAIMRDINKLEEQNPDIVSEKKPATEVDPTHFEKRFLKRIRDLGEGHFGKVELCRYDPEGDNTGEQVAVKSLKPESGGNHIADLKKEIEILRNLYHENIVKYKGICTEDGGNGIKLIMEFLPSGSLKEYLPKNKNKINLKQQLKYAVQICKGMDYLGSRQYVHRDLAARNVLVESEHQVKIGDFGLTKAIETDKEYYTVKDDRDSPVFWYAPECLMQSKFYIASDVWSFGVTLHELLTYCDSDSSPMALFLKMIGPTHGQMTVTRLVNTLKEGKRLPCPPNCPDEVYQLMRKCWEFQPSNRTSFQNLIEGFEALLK
UniProt O60674: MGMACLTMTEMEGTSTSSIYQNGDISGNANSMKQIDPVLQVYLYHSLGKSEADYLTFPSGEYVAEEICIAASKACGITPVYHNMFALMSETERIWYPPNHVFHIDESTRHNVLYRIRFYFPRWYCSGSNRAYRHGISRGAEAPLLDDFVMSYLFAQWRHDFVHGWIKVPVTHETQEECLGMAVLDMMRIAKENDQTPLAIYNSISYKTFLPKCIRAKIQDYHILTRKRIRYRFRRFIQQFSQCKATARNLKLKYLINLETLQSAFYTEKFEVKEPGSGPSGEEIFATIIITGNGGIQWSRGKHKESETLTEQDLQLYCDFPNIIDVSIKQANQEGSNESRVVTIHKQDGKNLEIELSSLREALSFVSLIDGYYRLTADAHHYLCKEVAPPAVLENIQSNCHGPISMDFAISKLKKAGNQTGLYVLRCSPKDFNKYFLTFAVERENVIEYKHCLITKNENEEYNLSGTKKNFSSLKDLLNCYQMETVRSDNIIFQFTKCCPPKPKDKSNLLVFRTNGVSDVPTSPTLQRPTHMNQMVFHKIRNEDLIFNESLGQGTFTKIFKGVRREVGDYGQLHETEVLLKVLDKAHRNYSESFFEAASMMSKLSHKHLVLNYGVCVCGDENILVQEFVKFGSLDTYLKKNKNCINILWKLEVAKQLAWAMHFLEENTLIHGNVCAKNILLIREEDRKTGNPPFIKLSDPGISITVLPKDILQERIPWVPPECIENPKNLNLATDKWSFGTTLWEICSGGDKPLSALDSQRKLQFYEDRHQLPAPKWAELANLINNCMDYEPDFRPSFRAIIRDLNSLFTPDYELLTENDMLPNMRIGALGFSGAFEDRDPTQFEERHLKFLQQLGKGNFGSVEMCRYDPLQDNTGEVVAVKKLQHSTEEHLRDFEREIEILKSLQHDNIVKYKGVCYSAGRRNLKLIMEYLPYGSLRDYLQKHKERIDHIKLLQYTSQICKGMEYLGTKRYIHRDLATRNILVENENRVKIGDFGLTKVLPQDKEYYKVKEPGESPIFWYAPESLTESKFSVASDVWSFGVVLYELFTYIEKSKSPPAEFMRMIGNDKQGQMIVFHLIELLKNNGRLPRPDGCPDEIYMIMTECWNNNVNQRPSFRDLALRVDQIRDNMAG

Columns and labels:
[1] = molecular target: Non-receptor tyrosine-protein kinase TYK2 (Homo sapiens, UniProt P29597)
[2] = molecular target: Tyrosine-protein kinase JAK1 (Homo sapiens, UniProt P23458)
[3] = molecular target: Tyrosine-protein kinase JAK2 (Homo sapiens, UniProt O60674)

| IC50 [1] [nM] | IC50 [2] [nM] | SMILES | IC50 [3] [nM] |
| --- | --- | --- | --- |
| 696 | 7.86 | CNC(=O)c1cnc2[nH]ccc2c1N[C@@H]1CCN(Cc2cccc(OC)c2)C[C@H]1F (relative stereo) | – |
| – | – | CNC(=O)c1cnc2[nH]ccc2c1N[C@@H]1CCN(Cc2ccc(C#N)cc2)[C@H](C)C1 (relative stereo) | 4.46 |
| – | – | CNC(=O)c1cnc2[nH]ccc2c1N[C@@H]1CCN(Cc2ccc(OC)cc2)[C@@H](C)C1 (relative stereo) | 817 |
| – | 0.769 | CNC(=O)c1cnc2[nH]ccc2c1N[C@@H]1CCN(Cc2cccc(OC)c2)C[C@@H]1F (relative stereo) | – |
| 65.3 | – | O=C(Nc1nc2cccc(-c3ccc(CN4CCS(=O)(=O)CC4)cc3)n2n1)C1CC1 [FILGOTINIB] | – |
